Measured values: paper PMC5606850, “Acidic C-terminal domains autoregulate the RNA chaperone Hfq” (eLife, 2017)

Key:
Hfq-sCTD = assay: RNA binding to Hfq-sCTD, fluorescence anisotropy; set-up: species or system E. coli; conditions: dsRNA product (D16-FAM·R16) versus ssRNA substrate (D16-FAM)
[1] = SDS-PAGE oligomerization of purified Hfq variants; format: physicochemical, E. coli; conditions: 4–20% SDS-PAGE, ~2.8 µg protein, 2% SDS, boiled
Experimental: (§1) Figure 2. CTD and RNA occupy the same rim binding site. […] The CTD linker is shown in purple, the acidic tip in red and the N-terminal FITC as a yellow star. Hfq core is shown in cyan, with basic rim patches in dark blue. […] (C) Reaction scheme for annealing an RNA molecular beacon to a target RNA (open bar) ([Hopkins et al., 2011]; [Panja et al., 2015]). (D) Progress curves for annealing 50 nM molecular beacon and 100 nM Target by 50 nM Hfq65 hexamer at 30°C, measured by stopped-flow fluorescence. See Figure 2—figure supplement 3 for further data. (E) Contribution of core residues to CTD binding. Interaction energy (Expected Energetic Contribution; EEC) in silico for a core residue in the Rosetta models (solid symbols and solid line; adjusted R^2 = 0.77) or the average annealing rates for Target and Target-A18 relative to Hfq65 (open symbols and dashed line; adjusted R^2 = 0.94) versus experimental CTD binding energy (∆∆G°) for each Hfq65 variant. The binding energy, ∆∆G° = –RTln(Kd^MUT/Kd), reflects the perturbation to CTD binding by a mutation in Hfq65. […] Annealing of 100 nM Target RNA to 50 nM beacon RNA by Hfq65 and Hfq65 variants was measured by stopped flow fluorescence at 30°C in 1 × TNK buffer. […] The change in fluorescence emission intensity was normalized to the maximum fluorescence within an experiment. […]

ChiX sRNA and chiP mRNA = assay: ChiX sRNA-chiP mRNA annealing, EMSA; format: biochemical, E. coli; conditions: 10 °C
Experimental: (§2) Figure 4. Shortening the CTD increases auto-inhibition by acidic residues. (A) Observed annealing rate constants for 100 nM target RNA and 50 nM molecular beacon with 0–200 nM Hfq hexamer at 30°C, measured by stopped-flow fluorescence. Black, Hfq102; red, Hfq-sCTD; cyan, Hfq65. (B) Fluorescence anisotropy assay for RNA binding and release. In stopped-flow FRET experiments, the dsRNA is released after pairing with its complementary strand ([Panja et al., 2013]; [Santiago-Frangos et al., 2016]). […] Remaining RNA was displaced from Hfq by excess ssDNA (400 nM DNA2). The averages and standard deviations for three trials are plotted for each Hfq variant. […] (D) Annealing of 5 nM ^32P-ChiX sRNA with 30 nM chiP mRNA without Hfq, or with Hfq65, Hfq102 or Hfq-sCTD, as indicated above each lane. Samples were loaded on a native polyacrylamide gel 60 min or 20 s after the components were mixed. […] (E) Fractions of free ChiX (black), ChiX·chiP dsRNA (light grey), ChiX·Hfq·chiP ternary complex (hatched) and ChiX·Hfq binary complex (dark grey) after 4 min of annealing, as analyzed by EMSA (Figure 4—figure supplement 2). […] Annealing of 100 nM Target RNA to 50 nM beacon RNA by Hfq variants was measured by stopped flow fluorescence at 30°C in 1 × TNK buffer. […] The change in fluorescence emission intensity was normalized to the maximum fluorescence within an experiment. […]

[2] = system: RNA molecular beacon and Target RNA; assay: RNA annealing kinetics (molecular beacon and Target RNAs), stopped-flow fluorescence; format: biochemical; conditions: all RNA targets (Target, Target-U6, Target-A18), 30 °C
Experimental: as §1, with “binding.” for “binding. Interaction energy (Expected Energetic Contribution; EEC) in silico for a core residue in the Rosetta models (solid symbols and solid line; adjusted R^2 = 0.77) or the average annealing rates for Target and Target-A18 relative to Hfq65 (open symbols and dashed line; adjusted R^2 = 0.94) versus experimental CTD binding energy (∆∆G°) for each Hfq65 variant. The binding energy, ∆∆G° = –RTln(Kd^MUT/Kd), reflects the perturbation to CTD binding by a mutation in Hfq65.”
To determine how much core residues that bind the CTD contribute to Hfq’s RNA annealing activity, we compared the effect of rim mutations on the rate of base pairing between an RNA molecular beacon and the 16 nt Target RNA by stopped-flow fluorescence spectroscopy (Figure 2C) ([Hopkins et al., 2011]). […]

D16-FAM·R16 = assay: anisotropy time-course of D16-FAM·R16 binding, annealing and release; format: biochemical; conditions: 50 nM D16-FAM, 50 nM Hfq hexamer, then 50 nM R16, TNK buffer, 30 °C, three trials
Experimental: as §2

B1: Hfq-sCTD (protein)
chain: MAKGQSLQDPFLNALRRERVPVSIYLVNGIKLQGQIESFDQFVILLKNTVSQMVYKHAISTVVPSRPVSHHSNNAGGGTSSNYHHDSEETE
**Q.** For B1, which “Krel = Kd(P)/Kd(S), Hfq-sCTD” value (Hfq-sCTD) is on record?
**A.** 14.0

**Q.** What about the “oligomeric state on SDS-PAGE” value [1] of the same molecule?
**A.** forms a mixture of dodecamer, hexamer and monomer

**Q.** And the “time to form ternary complex with ChiX and chiP” value (ChiX sRNA and chiP mRNA; 5 nM ChiX, 30 nM chiP)?
**A.** ≤ 20 s

**Q.** And the “stability of ChiX·Hfq·chiP ternary complex” value (ChiX sRNA and chiP mRNA; 33.3 nM Hfq hexamer, TNK buffer)?
**A.** least stable

**Q.** And the “annealing rates relative to Hfq102” value [2]?
**A.** decreased annealing rates relative to Hfq102 for all RNA targets

**Q.** What about the “release of annealed dsRNA (D16-FAM·R16) from Hfq” value (D16-FAM·R16) of the same molecule?
**A.** more dsRNA was released when the CTD is shortened
